According to PubChem BioAssay AID1347404 (Pan Lab, Icahn School of Medicine at Mount Sinai, 2020):
The entries are a selection whose mix differs from that of the whole data set. Activity calls are given as the source filed them. Rule as the data show it: active = inhibition above about 25%; inactive = the rest.

By UniProt entry, the sequences of proteins in these tests, tags left out.
UniProt P62877, whole entry, looked up: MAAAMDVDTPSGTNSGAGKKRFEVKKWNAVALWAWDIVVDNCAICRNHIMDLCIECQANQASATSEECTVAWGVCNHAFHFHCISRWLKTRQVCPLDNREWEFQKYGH
UniProt Q13616, whole entry, looked up: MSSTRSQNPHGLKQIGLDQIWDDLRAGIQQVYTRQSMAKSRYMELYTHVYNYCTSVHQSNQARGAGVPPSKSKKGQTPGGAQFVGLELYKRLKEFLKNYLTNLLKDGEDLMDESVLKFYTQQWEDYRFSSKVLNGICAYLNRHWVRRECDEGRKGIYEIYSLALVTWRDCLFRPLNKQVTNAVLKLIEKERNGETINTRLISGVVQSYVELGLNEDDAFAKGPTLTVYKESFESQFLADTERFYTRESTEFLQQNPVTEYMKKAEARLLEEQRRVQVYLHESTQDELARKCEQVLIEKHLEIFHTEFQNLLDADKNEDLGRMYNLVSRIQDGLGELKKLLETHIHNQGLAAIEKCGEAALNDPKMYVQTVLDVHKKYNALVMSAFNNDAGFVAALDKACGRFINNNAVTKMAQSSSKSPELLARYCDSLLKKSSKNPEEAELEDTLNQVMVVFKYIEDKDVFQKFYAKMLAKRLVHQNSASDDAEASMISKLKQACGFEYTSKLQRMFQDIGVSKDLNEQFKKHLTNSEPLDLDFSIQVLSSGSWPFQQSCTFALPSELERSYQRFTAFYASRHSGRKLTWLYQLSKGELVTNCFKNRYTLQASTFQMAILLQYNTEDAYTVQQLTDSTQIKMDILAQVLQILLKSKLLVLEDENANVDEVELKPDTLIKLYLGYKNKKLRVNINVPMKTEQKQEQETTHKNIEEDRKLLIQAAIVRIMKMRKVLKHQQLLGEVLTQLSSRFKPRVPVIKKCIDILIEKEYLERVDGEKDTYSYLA

target: E3 ubiquitin-protein ligase RBX1 (Homo sapiens) + Cullin-1 (Homo sapiens) (UniProt P62877+Q13616); assay: inhibitors of human ROC1-CUL1 ubiquitin ligase activity (AID 1347404); conditions: in vitro K48 di-Ub FRET, acceptor:donor ratio, 45 min; at 10 µM; hits give high values

SMILES	inhibition
COc1ccccc1C(=O)NC(Sc1ccccc1)C(Cl)(Cl)Cl (configuration not stated)	inactive: 3.62%
CN(C)C(=O)c1cc([N+](=O)[O-])cc2c1-c1c(cc([N+](=O)[O-])cc1[N+](=O)[O-])C2=O	inactive: -4.98%
CNc1c(C(=O)Nc2ccc([N+](=O)[O-])cc2)cc([N+](=O)[O-])cc1[N+](=O)[O-]	inactive: 0.029%
Cc1ccc2nc(C)c3c(c2c1)SC(C(Cl)Cl)C3 (configuration not stated)	inactive: 5.88%
O=[N+]([O-])c1ccc(CCc2ccc([N+](=O)[O-])cc2[N+](=O)[O-])c([N+](=O)[O-])c1	inactive: -11.7%
CC(=O)O[C@H]1CN2CCC1[C@@H](c1ccccc1)C2 (some centres not stated)	inactive: 3.44%
CCC(=O)N1C2C3N(C(=O)CC)C1C1N(C(=O)CC)C(C(N1C(=O)CC)N3C(=O)CC)N2C(=O)CC	inactive: 1.15%
CCOC(=O)OC1CN2CCC1CC2 (configuration not stated)	inactive: -0.357%
O=[N+]([O-])c1ccc(NSc2ccc([N+](=O)[O-])cc2[N+](=O)[O-])c([N+](=O)[O-])c1	inactive: -2.38%
Clc1ccc2c(c1)n1nnnc1c1nnnn21	inactive: -2.99%
Cc1ccc(SC(NC(=O)c2ccc(C)cc2)C(Cl)(Cl)Cl)cc1 (configuration not stated)	inactive: 3.51%
CCCCN(CCCl)Cc1csc2ccc(Br)cc12	inactive: -6.74%
CN(C)C(=O)Oc1cccn2cc(-c3ccccc3)nc12	inactive: -3.2%
COC(=O)c1cc([N+](=O)[O-])cc2c1-c1c(cc([N+](=O)[O-])cc1[N+](=O)[O-])C2=O	inactive: -6.43%
Cc1nc2ccccc2c2c1CC(C(Cl)Cl)S2 (configuration not stated)	inactive: 6.96%
C(Cc1nn[nH]n1)Cc1nn[nH]n1	inactive: -3.5%
CN(C)C(=O)Oc1ccc2n(C)c(-c3ccccc3)c[n+]2c1	inactive: -8.57%
COc1cccc2c3c(c(C)nc12)CC(C(Cl)Cl)S3 (configuration not stated)	inactive: 5.55%
CC(=O)N1C2C3N(C(C)=O)C1C1N(C(C)=O)C(C(N1C(C)=O)N3C(C)=O)N2C(C)=O	inactive: 0.129%
Cc1c([N+](=O)[O-])cc(C(=O)Nc2ccc([N+](=O)[O-])cc2)cc1[N+](=O)[O-]	inactive: 1.9%
O=[N+]([O-])c1ccc(OCC(O)COc2ccc([N+](=O)[O-])cc2[N+](=O)[O-])c([N+](=O)[O-])c1	inactive: -8.99%
COc1ccc(CC(c2ccc(C)cc2)N2CCN(CCO)CC2)cc1OC (configuration not stated)	inactive: 4.94%
CN(C)C(=O)OCCc1n(C)cc[n+]1C	inactive: 1.94%
O=C(NC(Sc1ccccc1)C(Cl)(Cl)Cl)c1cccc(Cl)c1 (configuration not stated)	inactive: -2.76%
COc1ccc(C(=O)NC(Sc2ccccc2)C(Cl)(Cl)Cl)cc1 (configuration not stated)	inactive: 6.87%
O=P(Nc1ccccn1)(Oc1ccccc1Cl)Oc1ccccc1Cl	inactive: 1.7%
CN(C)C(=O)Oc1cccc(-c2c[n+]3cc(OC(=O)N(C)C)ccc3n2C)c1	inactive: -1.24%
